Test results: patent US11447505B1, “Pyrrolo[2,3-b]pyridine compounds and their use in the treatment of cancer” (priority 2017, dated 2022)

Legend:
[1] = system: kinase targets listed in tables 3 and 4; conditions: relative to MRCKβ Ki
[2] = Skin and blood compound concentrations after topical application to FVB mice

With c1cc(-c2c[nH]c3nccc(N4CCC[C@@]5(CCCCN5)C4)c23)ncn1 [Example E117, (6S)-8-(3-pyrimidin-4-yl-1H-pyrrolo[2,3-b]pyridin-4-yl)-1,8-diazaspiro[5.5]undecane] the “Fold selectivity MRCKβ” value ([1]; MRCKβ) was 1, the “Fold selectivity ROCK1” value ([1]; ROCK1) was 39 and the “Fold selectivity STK22D” value ([1]; STK22D) was 99. For the same compound, the “concentration in blood, repeated 25 μg doses relative to single 10 μg dose” value [2] was 4 fold and the “concentration in skin, repeated 25 μg doses relative to single 10 μg dose” value [2] was 2.8 fold.
